The entries are a selection whose mix differs from that of the whole data set. The source made the active and inactive calls. Rule as the data show it: active = inhibition above about 11%; inactive = the rest.
Target: 1-phosphatidylinositol 4,5-bisphosphate phosphodiesterase beta-3 (Homo sapiens) (UniProt Q01970)
Assay: human PLC-beta3 inhibitors, primary screen, biochemical, fluorescence (AID 720704);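 also: 0% = median of compound wells on plate and 100% = full blocker control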
Conditions: Purified PLC-beta3, fluorogenic substrate, at 12.2 µM, active compounds read high

Amino acid sequences for entries named in this document (tags omitted).
UniProt Q01970, whole entry, looked up: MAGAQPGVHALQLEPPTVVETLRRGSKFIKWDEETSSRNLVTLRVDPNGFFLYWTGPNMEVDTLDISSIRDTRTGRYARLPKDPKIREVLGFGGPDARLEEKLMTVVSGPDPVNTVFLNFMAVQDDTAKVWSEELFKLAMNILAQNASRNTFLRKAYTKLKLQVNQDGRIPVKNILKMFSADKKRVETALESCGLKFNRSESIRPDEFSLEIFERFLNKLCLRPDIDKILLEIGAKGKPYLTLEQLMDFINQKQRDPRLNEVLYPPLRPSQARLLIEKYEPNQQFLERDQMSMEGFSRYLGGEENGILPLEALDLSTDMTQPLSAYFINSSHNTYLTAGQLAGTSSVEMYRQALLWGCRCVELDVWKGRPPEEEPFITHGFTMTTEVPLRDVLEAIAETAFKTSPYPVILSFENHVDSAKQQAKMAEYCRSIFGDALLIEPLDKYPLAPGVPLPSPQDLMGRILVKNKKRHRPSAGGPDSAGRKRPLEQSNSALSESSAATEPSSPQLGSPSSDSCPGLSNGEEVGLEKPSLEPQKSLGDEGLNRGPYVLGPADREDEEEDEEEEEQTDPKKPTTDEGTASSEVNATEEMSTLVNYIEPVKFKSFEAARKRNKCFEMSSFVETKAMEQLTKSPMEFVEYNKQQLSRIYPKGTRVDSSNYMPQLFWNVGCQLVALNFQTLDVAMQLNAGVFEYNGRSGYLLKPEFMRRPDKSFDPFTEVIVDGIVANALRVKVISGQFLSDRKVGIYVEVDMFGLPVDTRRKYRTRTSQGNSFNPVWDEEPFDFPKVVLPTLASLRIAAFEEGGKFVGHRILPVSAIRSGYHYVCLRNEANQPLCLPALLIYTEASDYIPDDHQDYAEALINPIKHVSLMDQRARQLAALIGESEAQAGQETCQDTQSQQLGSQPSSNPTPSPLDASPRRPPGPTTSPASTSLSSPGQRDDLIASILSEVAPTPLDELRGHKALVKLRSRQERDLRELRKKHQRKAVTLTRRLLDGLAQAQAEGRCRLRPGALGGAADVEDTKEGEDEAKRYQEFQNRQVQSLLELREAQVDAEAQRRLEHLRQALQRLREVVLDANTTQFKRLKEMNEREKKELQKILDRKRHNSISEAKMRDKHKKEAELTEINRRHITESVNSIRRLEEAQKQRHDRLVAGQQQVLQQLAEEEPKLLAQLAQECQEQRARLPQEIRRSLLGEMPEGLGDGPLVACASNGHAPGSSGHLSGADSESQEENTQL

| Compound | inhibition |
| --- | --- |
| C[C@@H]1C=CCP(=O)(Oc2ccccc2)O1 (stereo not given in full) | inactive: 6.56% |
| C[C@H]1OP(=O)(Oc2ccccc2)C[C@@H]2O[C@@H]21 (stereo not given in full) | inactive: 2.14% |
| Cc1ccccc1CN(C)C(=O)COC(=O)C(O)(c1ccccc1)c1ccccc1 | inactive: -4.34% |
| COC(=O)C1(C)COP(=O)(NCc2ccccc2)OC1 (stereo not given) | inactive: -1.36% |
| N#C/C(=C\c1ccc(N(CCBr)CCBr)cc1)C(N)=O | inactive: -16.7% |
| CC(=O)c1ccc(N2CC2c2ccncc2)cc1 (stereo not given) | inactive: 3.66% |
| c1nnnn1CCn1cnnn1 | inactive: 2.85% |
| CC(C)C(=O)NC(Sc1ccccc1)C(Cl)(Cl)Cl (stereo not given) | inactive: -0.05% |
| O=P(Nc1nccs1)(c1ccccc1)c1ccccc1 | inactive: 2.53% |
| C[C@H]1OP(=O)(Oc2ccccc2)[C@H](O)[C@H](O)[C@H]1N=[N+]=[N-] (stereo not given in full) | inactive: 2.11% |
| O=P(Nc1nc2ccccc2s1)(c1ccccc1)c1ccccc1 | inactive: -8.32% |
| O=P(Nc1ccccn1)(c1ccc(Br)cc1)c1ccc(Br)cc1 | inactive: -3.04% |
| CN(C)C1(CNC(=O)c2ccc(Cl)c(S(N)(=O)=O)c2)CCCCC1 | inactive: 7.11% |
| Nc1ccc(CCCCOc2ccccc2)cc1 | inactive: -3.2% |
| COc1ccc(N)c([N+](=O)[O-])c1[N+](=O)[O-] | inactive: 2.4% |
| O=C(OC1CN2CCC1CC2)c1cccc(Cl)c1 (stereo not given) | inactive: 7.01% |
| Nc1ccc([As](=O)(O)c2ccc([N+](=O)[O-])cc2)cc1 | inactive: -6.61% |
| C(Cc1nn[nH]n1)Cc1nn[nH]n1 | inactive: 1.85% |
| C/C(N)=N\P(=O)(OCc1ccccc1)OCc1ccccc1 | inactive: 5.51% |
| O=[As](O)(c1ccccc1)c1ccc(O)cc1 | inactive: -1.99% |
| O=[N+]([O-])c1ncn(CCn2cnc([N+](=O)[O-])n2)n1 | inactive: -6.42% |
| CC(=O)NC(SC(=S)N(C)C)C(Cl)(Cl)Cl (stereo not given) | inactive: -2.24% |

| Compound | inhibition |
| --- | --- |
| CN(C)C1(CNC(=O)c2ccc(S(C)(=O)=O)cc2)CCCCC1 | inactive: -4.72% |
| CCCC1OP(=O)(Nc2ccccc2)OCC1CC (stereo not given) | inactive: -3.3% |
| O=C(/C=C/c1ccccc1)OC1CN2CCC1CC2 (stereo not given) | inactive: -3.15% |
| CC1CCC(C(C)C)C(OP(=O)(Nc2ccccn2)c2ccccc2)C1 (stereo not given) | inactive: 2.77% |
| Cc1ccc(C(=O)OC2CN3CCC2CC3)cc1 (stereo not given) | inactive: 3.58% |
| Cc1nn(-c2ccccc2)c2c1P(=O)(N1CCOCC1)N(C)C(c1ccccc1)=N2 (stereo not given) | inactive: 8.55% |
| Nc1cccc([As](=O)(O)c2ccccc2)c1 | inactive: -2.21% |
| O=P1(Nc2ccc(Br)cn2)COc2ccccc2OC1 | inactive: 1.92% |
| NS(=O)(=O)c1cccc(NC(=O)COC(=O)C(O)(c2ccccc2)c2ccccc2)c1 | inactive: -2.59% |
| O=[As](O)(c1cccs1)c1cccs1 | inactive: -4.33% |
| Cc1ccc(OCC(=O)OC2CN3CCC2CC3)cc1 (stereo not given) | inactive: 0.26% |
| Cc1ccc(S(=O)(=O)N(CCCN)CCCc2c(C)nc(N)[nH]c2=O)cc1 | inactive: 2.92% |
| O=P1(Nc2ncccn2)COc2ccccc2OC1 | inactive: 2.58% |
| CC(C)(C)C(=O)NC(Sc1ncccn1)C(Cl)(Cl)Cl (stereo not given) | inactive: -2.73% |
| O=P1(N(CCCl)CCCl)NCCC(C(F)(F)F)O1 (stereo not given) | inactive: 0.45% |
| Clc1n[nH]nc1-c1nn[nH][15n]1 | inactive: 3.34% |
| CCOP(=O)(NC(=NC(C)c1ccccc1)NC(C)c1ccccc1)OCC (stereo not given) | inactive: 1.25% |
| O=P1(Nc2ccccn2)COc2ccccc2OC1 | inactive: 4.54% |
| CCC1=CC2Cc3nc4ccc(Cl)cc4c(N)c3C(C1)C2 (stereo not given) | inactive: -17.3% |
| CN(CCCl)Cc1cc(Cl)c(NC2=NCCN2)c(Cl)c1 | inactive: 3.64% |
| CCOP(=O)(Nc1ccc(C)cn1)OCC | inactive: -6.59% |
| CN(C(=O)Cc1ccc(Cl)c(Cl)c1)C1CCCC[C@@H]1N1CCCC1 (stereo not given in full) | inactive: 5.19% |

| Compound | inhibition |
| --- | --- |
| CC(C)/C=N\N=C(\N)N[N+](=O)[O-] | inactive: -3.85% |
| CN(C(=O)Cc1ccc(Cl)c(Cl)c1)[C@@H]1CCCC[C@H]1N1CCCC1 | inactive: -0.9% |
| CC1(CBr)Cn2c(nc3ccccc3c2=O)S1 (stereo not given) | inactive: 0.73% |
| COc1ccccc1CNC(=O)COC(=O)C(O)(c1ccccc1)c1ccccc1 | inactive: 4.31% |
| O=[As](O)(c1cccc(O)c1)c1cccc(O)c1 | inactive: -2.95% |
| Cc1cccc(OCC(=O)OC2CN3CCC2CC3)c1 (stereo not given) | inactive: 0.4% |
| O=C(OC1CN2CCC1CC2)c1ccc(Cl)cc1 (stereo not given) | inactive: -2.84% |
| CS(=O)(=O)c1ccc(Cl)c(NC(=O)COC(=O)C(O)(c2ccccc2)c2ccccc2)c1 | inactive: -2.92% |
| COc1cc(C(=O)NCC2(N3CCOCC3)CCCCC2)cc(Cl)c1OC(C)C | inactive: 1.45% |
| O=[As](O)(O)c1cccnc1 | inactive: -4.29% |
| CCOP(=O)(Nc1cccc2ccccc12)OCC | inactive: 2.26% |
| COc1cc(C2NCCC3(OCCO3)C2(C)C)cc(OC)c1OC (stereo not given) | inactive: -0.31% |
| Nc1cccc2c([As](=O)(O)O)cccc12 | inactive: -212% |
| Cc1ccc(NCCc2c([N+](=O)[O-])cc([N+](=O)[O-])cc2[N+](=O)[O-])cc1 | inactive: 1.51% |
| CCCOP(=S)(Nc1nc(N)cc(=O)[nH]1)OCCC | inactive: 0.69% |
| Nc1ccccc1[As](=O)(O)c1ccccc1 | inactive: -1.58% |
| O=C(O)COc1ccc([As](=O)(O)O)cc1[N+](=O)[O-] | inactive: 0.61% |
| O=P(Nc1nccs1)(Oc1ccccc1)Oc1ccccc1 | inactive: 0.33% |
| CCOP1(=S)c2c(C)nn(CCC#N)c2N=C(c2ccccc2F)N1C (stereo not given) | inactive: 4.24% |
| CCOP1(=S)c2c(C)nn(CCC#N)c2N=C(c2ccc(F)cc2)N1C (stereo not given) | inactive: -0.88% |
| CN(C(=O)Cc1ccccc1)[C@@H]1CC[C@]2(CCCO2)C[C@H]1N1CCCC1 | inactive: 0.92% |
| N#CCCN(C(=O)COC(=O)C(O)(c1ccccc1)c1ccccc1)c1ccc(F)cc1 | inactive: -6.35% |

| Compound | inhibition |
| --- | --- |
| CN(C(=O)Cc1ccc(Cl)c(Cl)c1)[C@H]1CC[C@@]2(CCCO2)C[C@@H]1N1CCCC1 | inactive: 4.25% |
| CN(C)C(=O)c1cc([N+](=O)[O-])cc2c1-c1c(cc([N+](=O)[O-])cc1[N+](=O)[O-])C2=O | inactive: -2.28% |
| O=[N+]([O-])c1ccc2c(c1)nnn2O | inactive: -1.39% |
| NC(=O)Nc1ccc([As](=O)(O)O)cc1 | inactive: 3.23% |
| [N-]=[N+]=NC1CCCCC1NC(=O)c1cc([N+](=O)[O-])cc([N+](=O)[O-])c1 (stereo not given) | inactive: 1.79% |
| Cc1ccc(OP(=O)(Nc2ccc([N+](=O)[O-])cn2)Oc2ccc(C)cc2)cc1 | inactive: -6.79% |
| Cc1ccc2nc3c(c(C)c2c1)CC(C(Cl)Cl)S3 (stereo not given) | inactive: -42.2% |
| COc1cc(C(=O)NCC2(N3CCOCC3)CCCCC2)ccc1OCC(C)C | inactive: -2.87% |
| O=[N+]([O-])c1ccc(-c2cc([N+](=O)[O-])c(O)c([N+](=O)[O-])c2)cc1 | inactive: -5.35% |
| O=[As](O)(c1ccc(O)cc1)c1ccccc1O | inactive: -0.5% |
| C[As](=O)(O)c1cccc(C(=O)O)c1 | inactive: -4.26% |
| O=C(OC1CN2CCC1CC2)c1cccc2[nH]cnc12 (stereo not given) | inactive: -10.9% |
| CCN(CC)C(=S)SC(NC=O)C(Cl)(Cl)Cl (stereo not given) | inactive: -0.66% |
| CC(C)NC(=O)NP(=O)(Oc1ccccc1)Oc1ccccc1 | inactive: -0.23% |
| ClCCSc1nnc(-c2cccnc2)o1 | inactive: 2.61% |
| CC(C)c1ccc(OP(=O)(Nc2ccccn2)Oc2ccccc2F)cc1 (stereo not given) | inactive: -9.12% |
| COC(=O)C1(C)COP(=O)(N2CCCCCC2)OC1 (stereo not given) | inactive: 3.32% |
| O=P1(N(CCCl)CCCl)OCCCN1CCCl (stereo not given) | inactive: 2.52% |
| O=P1(N(CCCl)CCCl)Nc2ccccc2N1 | inactive: -29.9% |
| COc1cc(I)ccc1[As](=O)(O)O | inactive: 0.77% |
| COc1ccc2nc(NP(=O)(c3ccccc3)c3ccccc3)sc2c1 | inactive: 2.7% |
| Cc1c2c(nc3ccccc13)SC(C(Cl)Cl)C2 (stereo not given) | inactive: -15.9% |

| Compound | inhibition |
| --- | --- |
| Cc1cc(=O)[nH]c(N[N+](=O)[O-])n1 | inactive: 0.49% |
| O=C(OC1CN2CCC1CC2)C12CC3CC(CC(C3)C1)C2 (stereo not given) | inactive: -1.46% |
| O=[N+]([O-])c1cc(Oc2ccc([N+](=O)[O-])cc2C(F)(F)F)cc([N+](=O)[O-])c1 | inactive: -6.28% |
| COc1ccc(N/C(=N/P(=O)(N2CCOCC2)N2CCOCC2)N2CCOCC2)cc1 | inactive: -6.03% |
| O=C(O)C(=O)c1ccc(N(CCCl)CCCl)cc1 | inactive: -0.73% |
| O=C(Nc1ccncc1[N+](=O)[O-])c1ccc([N+](=O)[O-])cc1[N+](=O)[O-] | inactive: -4.69% |
| O=C(COc1ccccc1)OC1CN2CCC1CC2 (stereo not given) | inactive: -0.8% |
| COC(=O)C1(C)COP(=O)(N2CCCC2)OC1 (stereo not given) | inactive: 5.6% |
| COP1(=S)c2c(C)nn(CCC#N)c2N=C(c2ccc(F)cc2)N1C (stereo not given) | inactive: -0.39% |
| CCC(C)N(CC(C)C)C(=S)SC(NC(C)=O)C(Cl)(Cl)Cl (stereo not given) | inactive: -0.43% |
| O=C(OC1CN2CCC1CC2)c1cccc([N+](=O)[O-])c1 (stereo not given) | inactive: 3.77% |
| CCOC(=O)c1ccc(NC(=O)C(C)(CCl)SC)cc1 (stereo not given) | inactive: -1.29% |
| COP(=O)(OC)N1CC1c1ccccc1 (stereo not given) | inactive: 3.83% |
| Cc1cc(SC(NC(=O)c2ccccc2)C(Cl)(Cl)Cl)nc(C(C)C)n1 (stereo not given) | inactive: -6.39% |
| CCCCOc1ccc(C(=O)NCC2(N3CCCCC3)CCCCC2)cc1OC | inactive: -5.64% |
| CCOC(=O)Nc1ccc([As](=O)(O)O)c(O)c1 | inactive: -6.17% |
| O=C(O)C(O)c1ccc(N(CCCl)CCCl)cc1 (stereo not given) | inactive: 1.73% |
| CC1CCNP(=O)(N(CCCl)CCCl)O1 (stereo not given) | inactive: -3.91% |
| O=P(Nc1ccccn1)(c1cccc2ccccc12)c1cccc2ccccc12 | inactive: -0.85% |
| Cc1cc(SC(NC=O)C(Cl)(Cl)Cl)ncn1 (stereo not given) | inactive: 2.63% |
| O=[N+]([O-])c1ccc(Nc2ccc(Oc3ccc([N+](=O)[O-])cc3[N+](=O)[O-])cc2)c([N+](=O)[O-])c1 | inactive: -1.31% |
| CCOC(=O)Nc1cccc([As](=O)(O)O)c1 | inactive: -13.1% |

— PubChem BioAssay AID720704 (The Scripps Research Institute Molecular Screening Center, 2013)
